Target: T1, RSPO3 (Homo sapiens, UniProt Q9BXY4)
T1 sequence (Q9BXY4 22-272): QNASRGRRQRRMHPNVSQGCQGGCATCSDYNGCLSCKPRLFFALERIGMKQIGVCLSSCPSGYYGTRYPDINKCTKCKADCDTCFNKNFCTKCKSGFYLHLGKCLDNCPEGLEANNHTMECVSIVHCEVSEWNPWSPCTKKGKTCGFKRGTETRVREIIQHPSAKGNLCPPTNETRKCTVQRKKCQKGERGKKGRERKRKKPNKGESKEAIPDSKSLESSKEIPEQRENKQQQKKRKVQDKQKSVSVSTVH
Assay: Octet (ForteBio) kinetic binding to biotinylated RSPO3
Settings: 30° C.
Experimental: The streptavidin-coated sensors were coated with 10 μg/ml of biotinylated RSPO3 as described in the handbook of ForteBio. Antibody concentrations were in the range of 0.75 and 93.8 nM. Quantitative kinetic binding analysis was performed with pH-adjusted PBS with 0.5% BSA. All steps were run at 30° C. with a continuous shaking speed at 1000 rpm.
To assess the RSPO3-binding affinities of the antibodies, kinetics assays were performed by the Octetsystems. The purified monoclonal antibodies (mAbs) from batch-A clones (A1, A4, A6, A9), along with the reference Ab-131R002, were examined for binding with RSPO-3.

Kd: 976 µM
RMax: 9.7173
kdis: 0.0249 s⁻¹
kon: 25.5 M⁻¹ s⁻¹
Substance: Erbitux: antibody listed in Table 3 beside the anti-RSPO3 antibodies in the Octet RSPO3 binding test [reference compound]
